This experiment has as its target Prolyl 4-hydroxylase subunit alpha-1 (Homo sapiens, UniProt P13674). As to the kind of experiment: Competitive inhibition of human recombinant CP4H1 expressed in Escherichia coli Origami B(DE3) pre-incubated for 2 mins followed by alpha-ketoglutarate addition using dansylGlyProProGlyOEt substrate in Tris-HCl buffer at pH 7.8 at 30 degC by HPLC based Lineweaver-Burk analysis.

Chains of the proteins cited; added tags and fusions are not shown. Lines headed by an entry give the natural chain unless they say otherwise; changes in a name come on top.
UniProt P13674: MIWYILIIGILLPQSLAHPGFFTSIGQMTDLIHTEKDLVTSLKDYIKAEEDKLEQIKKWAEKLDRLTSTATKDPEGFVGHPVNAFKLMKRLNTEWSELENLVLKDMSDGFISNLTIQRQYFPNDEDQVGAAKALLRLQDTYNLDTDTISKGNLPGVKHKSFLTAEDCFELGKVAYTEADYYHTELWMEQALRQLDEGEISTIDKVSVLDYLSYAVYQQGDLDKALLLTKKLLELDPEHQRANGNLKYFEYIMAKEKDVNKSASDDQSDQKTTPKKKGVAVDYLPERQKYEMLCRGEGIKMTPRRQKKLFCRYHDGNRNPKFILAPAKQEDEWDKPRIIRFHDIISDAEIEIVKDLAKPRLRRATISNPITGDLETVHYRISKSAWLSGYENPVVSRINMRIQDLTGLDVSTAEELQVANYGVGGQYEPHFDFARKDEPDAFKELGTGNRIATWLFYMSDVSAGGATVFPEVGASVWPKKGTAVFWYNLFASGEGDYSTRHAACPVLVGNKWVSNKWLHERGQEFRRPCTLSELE

The structures appear in SMILES notation. Calls of active or inactive are those of the source. The calls are words filed in the database; no cut-off is given here.

For the compound `O=C(O)c1ccc(-c2ccc(C(=O)O)cn2)nc1`, the inhibition entry was “Active”.

The values above are taken from ChEMBL document CHEMBL3585337, “Selective inhibition of prolyl 4-hydroxylases by bipyridinedicarboxylates” (Bioorg Med Chem, 2015).
